Test results taken from US20090169540A1, “Use Of An Antagonist Of Epac For Treating Human Cardiac Hypertrophy” (priority 2005, published 2009).
This is a selection: effects in other tests are not listed, and their absence says nothing.

System: neonatal rat ventricular myocytes
Test: Intracellular Ca2+ measurements (Fluo3-AM), spontaneous Ca2+ transients
Format: cell-based
Conditions: 20 mM external Cs+ to block HCN channels, 8-CPT 10 μM

## CsCl
  Effect of 8-CPT on spontaneous Ca2+ transients: failed to prevent the effect of 8-CPT
